The record followed here is article PMC8095187.

To fix the notation:
B1: Recombinant Tmod3-WT, Q9JHJ0 S25D (protein)
chain: MALPFRKDLGDYKDLDEDELLGKLDESELKQLETVLDDLDPENALLPAGFRQKNQTSKSATGPFDRERLLSYLEKQALEHKDRDDYVPYTGEKKGKIFIPKQKPAQTLTEETISLDPELEEALTSASDTELCDLAAILGMHNLIADTPFCDVLGSSNGVNQERFPNVVKGEKILPVFDEPPNPTNVEESLKRIRENDARLVEVNLNNIKNIPIPTLKDFAKTLEANTHVKHFSLAATRSNDPVAVAFADMLKVNKTLKSLNMESNFITGAGVLALIDALRDNETLMELKIDNQRQQLGTSVELEMAKMLEENTNILKFGYQFTQQGPRTRAANAITKNNDLVRKRRIEGDHQ
B2: Recombinant Tmod3-WT, Q9JHJ0 S25A (protein)
chain: MALPFRKDLGDYKDLDEDELLGKLAESELKQLETVLDDLDPENALLPAGFRQKNQTSKSATGPFDRERLLSYLEKQALEHKDRDDYVPYTGEKKGKIFIPKQKPAQTLTEETISLDPELEEALTSASDTELCDLAAILGMHNLIADTPFCDVLGSSNGVNQERFPNVVKGEKILPVFDEPPNPTNVEESLKRIRENDARLVEVNLNNIKNIPIPTLKDFAKTLEANTHVKHFSLAATRSNDPVAVAFADMLKVNKTLKSLNMESNFITGAGVLALIDALRDNETLMELKIDNQRQQLGTSVELEMAKMLEENTNILKFGYQFTQQGPRTRAANAITKNNDLVRKRRIEGDHQ
B3: Recombinant Tmod3-WT, Q9JHJ0 S71A (protein)
chain: MALPFRKDLGDYKDLDEDELLGKLSESELKQLETVLDDLDPENALLPAGFRQKNQTSKSATGPFDRERLLAYLEKQALEHKDRDDYVPYTGEKKGKIFIPKQKPAQTLTEETISLDPELEEALTSASDTELCDLAAILGMHNLIADTPFCDVLGSSNGVNQERFPNVVKGEKILPVFDEPPNPTNVEESLKRIRENDARLVEVNLNNIKNIPIPTLKDFAKTLEANTHVKHFSLAATRSNDPVAVAFADMLKVNKTLKSLNMESNFITGAGVLALIDALRDNETLMELKIDNQRQQLGTSVELEMAKMLEENTNILKFGYQFTQQGPRTRAANAITKNNDLVRKRRIEGDHQ

This assay deals with monomeric G-actin, P60709. The assay is described as follows: in vitro actin cross-linking assay (EDC/sulfo-NHS), Western blot densitometry. The conditions noted are these: chain shown with the change; G-actin at equimolar ratio; cross-linked for 45 minutes at room temperature; parent: est. 1.0; read off a plot. (A western blot detects proteins with antibodies after separation by electrophoresis.)
Regarding B1, the response was 1.1 A.U.
To B2 belongs 1.7 A.U; to B3, 1.6 A.U.
